The values below are quoted from earlier work in patent publication US20100136094A1, “Systems for modulating inflammation” (Searete LLC, a limited liability corporation of the state …, priority 2008, published 2010).

Chains of the proteins cited; added tags and fusions are not shown. Residues count along the entry.
UniProt P10721, 26-976: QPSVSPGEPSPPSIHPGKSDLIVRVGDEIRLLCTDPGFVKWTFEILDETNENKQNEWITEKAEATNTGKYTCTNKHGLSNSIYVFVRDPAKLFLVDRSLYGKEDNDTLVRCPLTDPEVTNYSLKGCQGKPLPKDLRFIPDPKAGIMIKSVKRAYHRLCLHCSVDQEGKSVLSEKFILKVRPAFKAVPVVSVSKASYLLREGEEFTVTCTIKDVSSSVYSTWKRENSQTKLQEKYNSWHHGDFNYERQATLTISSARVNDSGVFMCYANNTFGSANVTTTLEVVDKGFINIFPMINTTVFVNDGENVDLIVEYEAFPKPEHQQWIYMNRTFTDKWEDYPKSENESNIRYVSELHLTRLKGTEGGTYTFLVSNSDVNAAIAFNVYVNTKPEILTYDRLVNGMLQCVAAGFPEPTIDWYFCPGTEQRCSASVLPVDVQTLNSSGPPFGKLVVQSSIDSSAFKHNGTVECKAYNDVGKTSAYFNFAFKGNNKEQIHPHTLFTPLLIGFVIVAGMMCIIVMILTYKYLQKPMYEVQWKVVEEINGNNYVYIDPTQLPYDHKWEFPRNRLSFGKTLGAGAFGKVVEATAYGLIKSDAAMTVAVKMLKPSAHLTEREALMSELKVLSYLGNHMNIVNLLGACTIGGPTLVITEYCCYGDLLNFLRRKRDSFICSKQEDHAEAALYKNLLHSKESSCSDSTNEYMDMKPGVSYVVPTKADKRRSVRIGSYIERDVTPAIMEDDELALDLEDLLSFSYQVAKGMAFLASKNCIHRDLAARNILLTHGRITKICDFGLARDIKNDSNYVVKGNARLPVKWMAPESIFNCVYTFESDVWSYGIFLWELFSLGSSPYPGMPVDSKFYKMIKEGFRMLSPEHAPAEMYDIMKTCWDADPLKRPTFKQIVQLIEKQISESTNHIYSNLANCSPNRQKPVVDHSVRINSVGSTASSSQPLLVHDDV
UniProt P09619, 33-1106, species assumed: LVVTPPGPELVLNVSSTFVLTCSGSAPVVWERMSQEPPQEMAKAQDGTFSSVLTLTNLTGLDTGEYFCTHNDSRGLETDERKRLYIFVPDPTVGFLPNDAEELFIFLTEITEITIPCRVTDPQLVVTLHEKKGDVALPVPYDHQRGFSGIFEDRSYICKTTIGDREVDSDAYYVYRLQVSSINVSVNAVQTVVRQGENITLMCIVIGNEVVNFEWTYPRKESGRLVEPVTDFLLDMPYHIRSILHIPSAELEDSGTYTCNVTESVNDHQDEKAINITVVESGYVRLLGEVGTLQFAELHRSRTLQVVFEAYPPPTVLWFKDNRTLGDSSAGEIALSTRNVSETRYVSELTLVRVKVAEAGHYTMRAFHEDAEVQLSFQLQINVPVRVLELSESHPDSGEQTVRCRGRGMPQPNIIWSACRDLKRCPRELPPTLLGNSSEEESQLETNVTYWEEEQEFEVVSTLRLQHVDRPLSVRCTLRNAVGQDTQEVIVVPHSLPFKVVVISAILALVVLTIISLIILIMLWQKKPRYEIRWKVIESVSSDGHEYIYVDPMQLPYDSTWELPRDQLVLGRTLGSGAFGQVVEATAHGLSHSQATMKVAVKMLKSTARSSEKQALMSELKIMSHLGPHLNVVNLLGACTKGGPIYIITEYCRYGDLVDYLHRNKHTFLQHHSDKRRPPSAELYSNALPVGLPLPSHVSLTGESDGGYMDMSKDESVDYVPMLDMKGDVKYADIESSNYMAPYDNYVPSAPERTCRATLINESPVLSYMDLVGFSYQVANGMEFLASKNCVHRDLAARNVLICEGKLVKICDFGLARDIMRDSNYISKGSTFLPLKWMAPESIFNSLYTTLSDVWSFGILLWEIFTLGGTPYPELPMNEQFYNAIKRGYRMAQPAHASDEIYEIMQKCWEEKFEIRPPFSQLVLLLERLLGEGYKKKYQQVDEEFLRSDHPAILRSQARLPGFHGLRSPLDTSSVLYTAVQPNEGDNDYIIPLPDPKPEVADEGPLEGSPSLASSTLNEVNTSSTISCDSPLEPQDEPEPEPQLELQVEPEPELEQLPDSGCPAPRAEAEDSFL

One series has as its target c-Kit (Homo sapiens, UniProt P10721). The following applies: at nanomolar concentrations.
The next series addresses PDGFRβ (Homo sapiens, UniProt P09619). The following applies: at nanomolar concentrations.

Take `Cc1nc(Nc2ncc(C(=O)Nc3c(C)cccc3Cl)s2)cc(N2CCN(CCO)CC2)n1.O` [dasatinib, N-(2-chloro-6-methylphenyl)-2-[[6-[4-(2-hydroxyethyl)-1-piperazinyl]-2-methyl-4-pyrimidinyl]amino]-5-thiazolecarboxamide, monohydrate]: the “inhibition of c-Kit” value at c-Kit is reported as “inhibits”. Besides, the “inhibition of PDGFRβ” value on PDGFRβ is “inhibits”.
